The source of these data is patent US6875761B2 (Eisai Co., Ltd., priority 1997, dated 2005).

Protein sequences, listed by entry. Tags and fused reporters are not part of them.
UniProt P19327, whole entry: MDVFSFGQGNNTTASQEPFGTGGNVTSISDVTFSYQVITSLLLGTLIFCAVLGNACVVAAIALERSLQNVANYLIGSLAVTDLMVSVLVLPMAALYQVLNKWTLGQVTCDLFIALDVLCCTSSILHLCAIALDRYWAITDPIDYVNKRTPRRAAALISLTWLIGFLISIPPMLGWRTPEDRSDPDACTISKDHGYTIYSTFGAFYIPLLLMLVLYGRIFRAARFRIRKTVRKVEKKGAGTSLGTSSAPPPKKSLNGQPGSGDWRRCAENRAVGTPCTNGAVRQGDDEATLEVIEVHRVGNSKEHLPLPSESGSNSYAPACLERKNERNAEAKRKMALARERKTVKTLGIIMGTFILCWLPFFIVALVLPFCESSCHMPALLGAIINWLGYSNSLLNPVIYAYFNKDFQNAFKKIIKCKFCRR
UniProt P14842, whole entry: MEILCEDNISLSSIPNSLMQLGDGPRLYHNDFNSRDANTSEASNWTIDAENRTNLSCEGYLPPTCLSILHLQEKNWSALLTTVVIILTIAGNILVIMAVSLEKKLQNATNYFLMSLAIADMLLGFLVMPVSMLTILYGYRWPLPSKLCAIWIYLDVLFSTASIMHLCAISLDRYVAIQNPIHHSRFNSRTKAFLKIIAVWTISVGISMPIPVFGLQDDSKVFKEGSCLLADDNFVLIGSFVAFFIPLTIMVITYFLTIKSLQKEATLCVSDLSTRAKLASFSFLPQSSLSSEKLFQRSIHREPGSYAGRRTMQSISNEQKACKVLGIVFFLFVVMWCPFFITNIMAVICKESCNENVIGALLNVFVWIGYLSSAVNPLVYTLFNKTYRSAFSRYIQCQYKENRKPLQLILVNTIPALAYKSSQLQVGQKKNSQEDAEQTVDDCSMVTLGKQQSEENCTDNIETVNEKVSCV

Experiment [1] addresses serotonin 1A receptor (Rattus norvegicus, UniProt P19327). Kind of experiment: Binding test on [3H] 8-hydroxy-dipropylaminotetralin, hippocampus receptor fraction.
Experiment [2] has as its target serotonin 2 receptor (Rattus norvegicus, UniProt P14842). Kind of experiment: Binding test on [3H] ketanserin, cerebral cortex receptor fraction. The arrangement: species or system SD rats.

Structures can show the parent of a compound that is named as a salt. Where two headings read alike, the source gives them in different places.

As to `CCN1CCN(c2nc(-c3ccc(OCCc4ccc(C)nc4)cc3)cc3ccccc23)CC1`, the Ki in experiment [1] (read-out: 5HT1, 0.5 nM [3H] 8-OH-DPAT, room temperature 30 min, tested form: HCl) is 23.3 nM; in experiment [2] (read-out: 5HT2, 0.3 nM [3H] ketanserin, 37° C. 15 min, tested form: HCl), 18.7 nM.

Take `CCN1CCN(c2nc(/C=C/c3ccc(N4CCOCC4)nc3)cc3ccccc23)CC1` [Example 200, 3-[(E)-2-[2-(4-Morpholinyl)Pyridin-5-Yl]Ethenyl]-1-(4-Ethylpiperazin-1-Yl)Isoquinoline Hydrochloride]: the Ki in experiment [1] (read-out: 5HT1, 0.5 nM [3H] 8-OH-DPAT, room temperature 30 min, tested form: oxalate) stood at 21.1 nM; in experiment [2] (read-out: 5HT2, 0.3 nM [3H] ketanserin, 37° C. 15 min, tested form: oxalate), 31.8 nM.
